Data as given in patent US20240226120A1 (priority 2020, published 2024).

What was measured:
[1] = tested on: interferon and interferon-induced antiviral effector gene expression in cells transfected with pCMV-3Tag-3A control vector; assay type: cell-based, human
[2] = tested on: HEK293 (human embryonic kidney) cells transfected with plasmid expressing ORF10

## C=C(C)[C@@H]1CCC(C)=C[C@H]1c1c(O)cc(CCCCC)cc1O [Cannabidiol, 2-[(1R,6R)-3-Methyl-6-(1-methylethenyl)-2-cyclohexen-1-yl]-5-pentyl-1,3-benzenediol]
[1]
  IFIT1 expression: significantly increases
  Mx1 expression: exhibited expression
  interferons lambda 2/3 expression: did not cause an induction
[2]
  apoptosis (early and late): significantly greater extent
  augmentation of the apoptotic response to ORF10 expression: not significant
